# Apparent affinities of Ab-14 variants for a coronavirus HR2 peptide

From the AlphaSeq antibody data of Engelhart et al. 2022 (doi:10.1038/s41597-022-01779-4), copy in the FLAb collection.

All variants were tested on one target, the spike HR2 peptide PDVDLGDISGINAS (SARS-CoV-2).

Parent: Ab-14, a human scFv built as VH, the linker GGGGSGGGGSGGGGS, VL. Only the CDRs of the light chain vary.
VH: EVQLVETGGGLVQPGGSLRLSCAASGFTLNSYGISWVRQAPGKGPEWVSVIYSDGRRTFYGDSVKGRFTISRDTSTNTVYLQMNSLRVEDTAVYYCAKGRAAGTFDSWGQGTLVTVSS
VL: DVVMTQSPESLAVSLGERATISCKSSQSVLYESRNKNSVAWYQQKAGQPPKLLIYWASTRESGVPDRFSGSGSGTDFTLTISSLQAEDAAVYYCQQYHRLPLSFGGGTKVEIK

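The library (AAYL50) carries one to three amino acid substitutions per variant, with no insertions or deletions. In AlphaSeq, yeast of one mating type display the scFv and yeast of the other type display the target. Mating (16 h, 30 °C) was followed by selection of diploids and sequencing of their barcodes. Read counts were normalised to the haploid input and turned into Kd by a linear fit to BCL2-family pairs of known affinity, for each replicate. The assay was run in three technical replicates.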

Positions count from residue 1 of the parent VL; K24F puts F in place of K. Scale: log10 of Kd in nM, estimated from mating counts; low values are strong binders. Averages over replicates are reported, and they cover detected replicates only. A pair that was not seen in that replicate is written "n.d."; this usually means weak binding, but a binder can also be missed. Parent in this assay: reference entry 0.65, copy in this library 1.68. Empty control strains, which show no peptide, gave a signal in 18% of pairings with library AAYL50; the median was 4.19 and 95% of these signals were weaker than 2.99. No background was subtracted. For each scFv, signals with the empty controls are counted beside the result, with their mean in brackets.

changes	log10 Kd, replicates	log10 Kd (nM), mean	signal with controls
K24F+K36F+V39S	n.d. / n.d. / n.d.	n.d.	2/9 (3.61)
S25E+S58P	n.d. / 3.74 / 3.89	3.82	4/9 (4.13)
S25I+R34E+Y97L	4.40 / n.d. / n.d.	4.40	4/9 (3.88)
A40S+W56E+Q95K	0.79 / 1.09 / 1.24	1.04	1/9 (3.78)
A57Q+Q95V+L102Q	n.d. / n.d. / n.d.	n.d.	0/9
K24D+E32W+S38D	n.d. / 2.53 / n.d.	2.53	0/9
S26I+A40P+Y97E	n.d. / n.d. / n.d.	n.d.	0/9
N35A+K36N+S103R	1.02 / 1.14 / 1.41	1.19	2/9 (3.76)
V29W+K36M+P101N	3.45 / 2.78 / n.d.	3.12	5/9 (4.36)
S33E+N35D+S38W	n.d. / n.d. / n.d.	n.d.	0/9
Y97D+L100A+S103A	n.d. / n.d. / n.d.	n.d.	1/9 (3.68)
E32Y+R99I	2.14 / 2.23 / 2.46	2.28	3/9 (3.33)
V29N+E61I+S103M	1.11 / 1.38 / 1.53	1.34	1/9 (4.67)
E32C+R99L+L102K	2.72 / 2.93 / 2.47	2.71	0/9
S26I+W56N	-0.53 / -0.11 / -0.44	-0.36	2/9 (4.07)
Y31Q+S33A	0.69 / 0.87 / 0.76	0.77	2/9 (3.34)
K36V+V39Y	n.d. / n.d. / n.d.	n.d.	2/9 (3.79)
Q27E+V29N+Q96A	1.22 / 1.25 / 1.46	1.31	1/9 (3.07)
T59P+E61R+Q95Y	n.d. / n.d. / 6.06	6.06	3/9 (3.78)
E32T	1.61 / 1.80 / 2.18	1.86	2/9 (4.62)
S33N+Q96G+H98A	1.71 / 1.73 / 2.74	2.06	0/9
K24R+A40R+E61W	5.61 / n.d. / n.d.	5.61	0/9
V29R+S62T+H98S	1.14 / 1.43 / 1.02	1.20	0/9
V29D+E61C+R99V	0.77 / 1.00 / 0.83	0.87	0/9
R34V+N35C+A57D	2.65 / 2.34 / 3.05	2.68	2/9 (3.94)
Y31K+R99S	n.d. / 4.29 / n.d.	4.29	0/9
Y31I+S38G+W56A	0.42 / 0.65 / 0.65	0.57	2/9 (4.78)
S26I+R34F+N37W	4.07 / 3.69 / 3.85	3.87	3/9 (4.00)
Q27N+Q96V+Y97R	1.32 / 1.32 / 1.24	1.29	4/9 (4.46)
Q27W+V29Y+Y97I	1.60 / 1.44 / 1.58	1.54	1/9 (5.03)
S58M+E61R+S62T	2.65 / n.d. / n.d.	2.65	1/9 (3.97)
S26D+W56S+R60M	n.d. / n.d. / n.d.	n.d.	1/9 (5.09)
S26R+R99Y+S103M	1.62 / 1.66 / 1.83	1.70	1/9 (4.44)
Q27Y+V29R+P101R	n.d. / n.d. / n.d.	n.d.	0/9
V29Q+E32N+V39S	4.73 / 4.42 / n.d.	4.57	2/9 (4.62)
K24F+Q27E+A57K	5.28 / 3.46 / n.d.	4.37	0/9
Q27V+E32L+P101Q	3.37 / 3.16 / 3.93	3.49	4/9 (4.76)
S103T	n.d. / n.d. / n.d.	n.d.	1/9 (4.16)

The closing 5 entries, repeated:

| changes | log10 Kd, replicates | log10 Kd (nM), mean | signal with controls |
|---|---|---|---|
| Q27Y+V29R+P101R | n.d. / n.d. / n.d. | n.d. | 0/9 |
| V29Q+E32N+V39S | 4.73 / 4.42 / n.d. | 4.57 | 2/9 (4.62) |
| K24F+Q27E+A57K | 5.28 / 3.46 / n.d. | 4.37 | 0/9 |
| Q27V+E32L+P101Q | 3.37 / 3.16 / 3.93 | 3.49 | 4/9 (4.76) |
| S103T | n.d. / n.d. / n.d. | n.d. | 1/9 (4.16) |